# Yeast mating assay 2: variants of the scFv Ab-91

Binding partner: SARS-CoV-2 spike HR2 peptide, sequence PDVDLGDISGINAS.

Parent scFv Ab-91: VL joined to VH by a 15-residue (Gly4Ser)3 linker. Changes lie in the heavy chain CDRs alone.
VL: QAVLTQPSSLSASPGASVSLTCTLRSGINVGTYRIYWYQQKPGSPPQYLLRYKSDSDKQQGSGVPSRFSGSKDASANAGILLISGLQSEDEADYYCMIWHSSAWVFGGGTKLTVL
VH: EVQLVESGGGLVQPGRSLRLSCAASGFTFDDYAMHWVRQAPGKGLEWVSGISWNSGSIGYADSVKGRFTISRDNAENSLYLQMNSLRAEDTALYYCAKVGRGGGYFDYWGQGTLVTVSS

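Phage display of a naive human antibody library on the peptide gave the parent. Library AAYL51 holds single substitutions and randomly drawn double and triple substitutions in the CDRs. The scFvs were displayed on barcoded MATa yeast, the peptide on MATalpha yeast. After mating in shaken culture at 30 °C for 16 h, diploids were selected and their barcode pairs sequenced. The ratio of observed to expected reads was calibrated, replicate by replicate, on BCL2-family standards whose Kd was known from biolayer interferometry. There are three technical replicates.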

Each variant is given by its three heavy chain CDRs, as the data file delimits them; those of the parent are GFTFDDYAMH, GISWNSGSIGYADSVK, VGRGGGYFDY. Every variant below is changed at I58 of the VH (sequential numbering). The Kd shown is the geometric mean over detected replicates; a lower Kd is a better binder. A pair that was not seen in any replicate is written "nd"; this usually means weak binding, but a binder can also be missed. Parent in this assay: reference entry 72 nM, copy in this library 7.5 nM.

- GFTFDDYAMH, GISWNSGSPGYADSVK, IGRGGGYFDW = nd (0 of 3 replicates)
- GFTFDDYAMH, GIYWNSGSVGFADSVK, VGRGGGYFDY = nd (0 of 3 replicates)
- GFTFDDYAMH, GIEFNSGSFGYADSVK, VGRGGGYFDY = 740 nM (2 of 3 replicates)
- VFTFDDYAMH, GISWNSGSNGYADSVY, VGRGGGYFDY = 58 nM (3 of 3 replicates)
- GFTFADYAMH, GISWNSGSHGYADSVK, VGRMGGYFDY = 2.7 µM (3 of 3 replicates)
- GFTFSDYAMH, GISWNSGSDGYAWSVK, VGRGGGYFDY = 27 nM (3 of 3 replicates)
- GFTFDDYAMH, GISINSGSDGYADSVK, VGRGGGYFEY = nd (0 of 3 replicates)
- GFTFDDYGMH, GISWNSGSKGYADSVK, VGRGGLYFDY = 730 pM (3 of 3 replicates)
- GFTFDDYAMH, GISWNSGSPGYADSVK, PGRGGGYFDY = 10 µM (1 of 3 replicates)
- GFTFDDYAMH, GISWNSGSCGYRDSVK, VGRGGGYFGY = 240 µM (1 of 3 replicates)
- GFTFDDYAMH, GISWNLGSEGYAVSVK, VGRGGGYFDY = nd (0 of 3 replicates)
- GFTFDDYAMH, GISWNSVSRGYADSVK, VGRGGGYFRY = nd (0 of 3 replicates)
- GFTFDDYAMH, GISWNSGSPGSAWSVK, VGRGGGYFDY = nd (0 of 3 replicates)
- GFTDDDYAMH, GISWNGGSKGYADSVK, VGRGGGYFDY = 60 nM (3 of 3 replicates)
- GNTFDDYAMH, GISWFSGSGGYADSVK, VGRGGGYFDY = nd (0 of 3 replicates)
- GFTFDDHAMH, GISWNSGSKGYADSVK, VGRGGGFFDY = nd (0 of 3 replicates)
- GFTQDDYAMH, GISWNSGSWGYADSVK, VGRAGGYFDY = nd (0 of 3 replicates)
- GFTFDDYAMH, GWSWNSGSCGYADSWK, VGRGGGYFDY = nd (0 of 3 replicates)
- GFTGDDYAMH, GISWNSGPWGYADSVK, VGRGGGYFDY = nd (0 of 3 replicates)
- GFTFTDYAMH, GISWNSGSKGFADSVK, VGRGGGYFDY = nd (0 of 3 replicates)
- GFTFDDYAMH, GISWNSESGFYADSVK, VGRGGGYFDY = 140 µM (1 of 3 replicates)
- GFFFDDYAMH, GISWNSGSNGYADSVK, VGRVGGYFDY = nd (0 of 3 replicates)
- GFTFCDYAMH, GISWNSGSWGYAGSVK, VGRGGGYFDY = 43 µM (1 of 3 replicates)
- GFTFDDRAMH, GISWNSGSVGYADSVK, VGRRGGYFDY = nd (0 of 3 replicates)
- GFTFDEYAMH, GISWNSGSNGYEDSVK, VGRGGGYFDY = 4.0 µM (3 of 3 replicates)
- GFTFDDCAMH, GISWNSGSDGMADSVK, VGRGGGYFDY = 3.6 µM (1 of 3 replicates)
- GFTFDDYAMH, GSSWNSGSGGYADSVK, VGRDGGYFDY = 70 µM (3 of 3 replicates)
- GFTFDNYAMH, GISWNSGQHGYADSVK, VGRGGGYFDY = 4.3 nM (3 of 3 replicates)
- GFTFDDYAMD, GISWNSGSPGYADSVK, VGRGVGYFDY = 21 µM (2 of 3 replicates)
- GFTFDDYAMH, GIDWNSGSQGYADSVK, VGRGGGYFDY = nd (0 of 3 replicates)
- GFTFDDTAMH, GISWNSGSLGYADSVF, VGRGGGYFDY = 1.9 µM (3 of 3 replicates)
- GFTFDDYAMH, GISWNSGSFMYADSVK, VGRGGGYFRY = nd (0 of 3 replicates)
- GFEFDDYAMH, GISWNSGSKGYADSVK, VGRGGGWFDY = nd (0 of 3 replicates)
- GFTFDDYAKH, GISWNSGSCGYADSVK, VGRGRGYFDY = 16 µM (2 of 3 replicates)
- GFTFDDYAMH, GISWNSGSYGYADSVK, VRRGWGYFDY = 400 µM (1 of 3 replicates)
- GFTFDDYAMH, GISWNSGSYGGADSVK, VGRRGGYFDY = nd (0 of 3 replicates)
- GFTFDDYAMH, GISWNSGSKGTADSVK, VGRGGGNFDY = nd (0 of 3 replicates)
- GFTFDDYAMH, WISWNSGSDGYADAVK, VGRGGGYFDY = 460 µM (1 of 3 replicates)
- IFTSDDYAMH, GISWNSGSMGYADSVK, VGRGGGYFDY = 55 µM (1 of 3 replicates)
- GFTFDDYAMT, GISWNSGSPGYADSVK, VGRGGGYFDY = nd (0 of 3 replicates)
- WFTFDDYAMH, GISWNSGSGGYADSVK, VCRGGGYFDY = 1.2 µM (1 of 3 replicates)
- GFTFDDYAMH, GISWNSGSVGYADSVS, VGRGNGYFDY = nd (0 of 3 replicates)
- GFTFDDYAMH, GISWNSGSGGYADSVK, VGSGGGYFDY = nd (0 of 3 replicates)
- GFQFDDYAMH, GISWNSGSCGYADSVK, VGRGGGYFDY = nd (0 of 3 replicates)

4 of these entries, quoted again:

- GFTFDDYAMH, GSSWNSGSGGYADSVK, VGRDGGYFDY -> 70 µM (3 of 3 replicates)
- GFTFTDYAMH, GISWNSGSKGFADSVK, VGRGGGYFDY -> nd (0 of 3 replicates)
- GFTFDDYAMH, GIDWNSGSQGYADSVK, VGRGGGYFDY -> nd (0 of 3 replicates)
- GFTFDEYAMH, GISWNSGSNGYEDSVK, VGRGGGYFDY -> 4.0 µM (3 of 3 replicates)

Nonspecific signal, from three strains lacking the peptide, appeared in 21% of pairings of library AAYL51, centred on 34 µM (5% of these signals below 1.8 µM); values are not corrected for it.

The measurements come from Engelhart et al. 2022 (doi:10.1038/s41597-022-01779-4) through the FLAb antibody collection.